Results from PubChem BioAssay AID540248 (The Scripps Research Institute Molecular Screening Center, 2011).
The entries are a selection whose mix differs from that of the whole data set. Calls of active or inactive are those of the source.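 Rule for the calls: active = mean inhibition over three repeats above a set limit taken from the earlier primary screen (cut at about 37% in these data); inactive = the rest.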

biological target: Serine protease HTRA1 (Homo sapiens) (UniProt Q92743); assay: confirming inhibition of human HTRA1 – biochemical, fluorescence polarization, confirmation (AID 540248); conditions: recombinant HTRA1, FP-rhodamine activity-based probe, at 5.96 µM, hits give high values;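 note: 0% = HTRA1 with DMSO and 100% = wells lacking HTRA1; inhibitors block probe binding so polarization drops and inhibition rises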

Row | Compound | inhibition
1 | CCCCCCCCCCCCCCCC1C[N+](C)(C)CCOP(C)(=O)O1 (stereo unspecified) | active: 85.4%
